Measured values as given in ChEMBL document CHEMBL3576769, “Probing the Physicochemical Boundaries of Cell Permeability and Oral Bioavailability in Lipophilic Macrocycles Inspired by Natural Products” (J Med Chem, 2015).
Each block holds one compound with its values, some of them ahead of it.

Key:
[1] = Permeability of the compound assessed as drug transmittance level at 10 uM after 16 hrs by LC-MS detection based PAMPA method; assay type: physicochemical
[2] = Permeability of the compound at 10 uM after 16 hrs by LC-MS detection based PAMPA method; assay type: physicochemical; conditions: read-out: Peff
[3] = Permeability of the compound at 10 uM after 5 hrs by LC-MS detection based PAMPA method; assay type: physicochemical; conditions: read-out: Peff
[4] = Apparent permeability from apical to basolateral side in low-efflux MDCK cells expressing low levels of endogenous P-glycoprotein at […] incubated for 2 hrs by LC-MS/MS method; assay type: ADME, cell-based, Canis lupus familiaris; conditions: dog
[5] = Permeability of the compound assessed as drug transmittance level at 10 uM after 5 hrs by LC-MS detection based PAMPA method; assay type: physicochemical
[6] = Permeability of the compound assessed as recovery at 10 uM after 5 hrs by LC-MS detection based PAMPA method

Papp at 5 h, 10 µM [3]: 2 ×10⁻⁶ cm/s
Papp A→B at 2 h [4]: 1.4 ×10⁻⁶ cm/s
permeability [5]: 7%
recovery [6]: 96%
SMILES: CC(C)C[C@@H]1NC(=O)[C@@H](CC(C)C)N(C)C(=O)[C@H](CC(C)C)N(C)C(=O)C[C@H](O)[C@H](CC(C)C)NC(=O)[C@H]2CCCN2C(=O)[C@H](CC(C)C)N(C)C(=O)C[C@@H]1O

Papp at 5 h, 10 µM [3]: 20 ×10⁻⁶ cm/s
Papp A→B at 2 h [4]: 2 ×10⁻⁶ cm/s
permeability [5]: 58%
recovery [6]: 68%
SMILES: CC(C)C[C@@H]1NC(=O)[C@H]2CCCN2C(=O)[C@H](CC(C)C)N(C)C(=O)C[C@@H](O)[C@@H](CC(C)C)NC(=O)[C@H](CC(C)C)N(C)C(=O)[C@H](CC(C)C)N(C)C(=O)C[C@@H]1O

Papp at 5 h, 10 µM [3]: 6 ×10⁻⁶ cm/s
permeability [5]: 24%
recovery [6]: 92%
SMILES: CC(C)C[C@@H]1NC(=O)[C@H]2CCCN2C(=O)[C@@H](CC(C)C)N(C)C(=O)C[C@H](O)[C@H](CC(C)C)NC(=O)[C@H](CC(C)C)N(C)C(=O)[C@H](CC(C)C)N(C)C(=O)C[C@@H]1O

Papp at 5 h, 10 µM [3]: 4 ×10⁻⁶ cm/s
permeability [5]: 16%
recovery [6]: 26%
SMILES: CC(C)C[C@H]1NC(=O)[C@H]2CCCN2C(=O)[C@H](CC(C)C)N(C)C(=O)C[C@@H](O)[C@@H](CC(C)C)NC(=O)[C@H](CC(C)C)N(C)C(=O)[C@H](CC(C)C)N(C)C(=O)C[C@H]1O

Papp at 5 h, 10 µM [3]: 3 ×10⁻⁶ cm/s
permeability [5]: 12%
recovery [6]: 26%
SMILES: CC(C)C[C@@H]1NC(=O)[C@@H](CC(C)C)N(C)C(=O)[C@@H](CC(C)C)N(C)C(=O)C[C@@H](O)[C@@H](CC(C)C)NC(=O)[C@H]2CCCN2C(=O)[C@@H](CC(C)C)N(C)C(=O)C[C@@H]1O

Papp at 5 h, 10 µM [3]: 7 ×10⁻⁶ cm/s
Papp A→B at 2 h [4]: 5.7 ×10⁻⁶ cm/s
permeability [5]: 25%
recovery [6]: 76%
SMILES: CC(C)C[C@@H]1NC(=O)[C@H]2CCCN2C(=O)[C@@H](CC(C)C)N(C)C(=O)C[C@@H](O)[C@@H](CC(C)C)NC(=O)[C@@H](CC(C)C)N(C)C(=O)[C@@H](CC(C)C)N(C)C(=O)C[C@@H]1O

Further lines, the compound ahead of its results:

SMILES: CC(C)C[C@@H]1NC(=O)[C@H](Cc2ccc(O)cc2)N(C)C(=O)[C@H]2CCCN2C(=O)[C@H](CC(C)C)NC(=O)[C@H](CC(C)C)N(C)C(=O)[C@@H](CC(C)C)N(C)C1=O
permeability [1]: 35%
Papp at 16 h, 10 µM [2]: 3 ×10⁻⁶ cm/s

SMILES: CC(C)C[C@@H]1NC(=O)[C@H]2CCCN2C(=O)[C@H](CC(C)C)N(C)C(=O)C[C@H](O)[C@H](CC(C)C)NC(=O)[C@H](CC(C)C)N(C)C(=O)[C@H](CC(C)C)N(C)C(=O)C[C@@H]1O
Papp at 5 h, 10 µM [3]: 1 ×10⁻⁶ cm/s
Papp A→B at 2 h [4]: 0.8 ×10⁻⁶ cm/s
permeability [5]: 2%
recovery [6]: 54%

SMILES: CC(C)C[C@@H]1NC(=O)[C@H](CC(C)C)N(C)C(=O)[C@H](CC(C)C)N(C)C(=O)C[C@H](O)[C@H](CC(C)C)NC(=O)[C@@H]2CCCN2C(=O)[C@H](CC(C)C)N(C)C(=O)C[C@@H]1O
Papp at 5 h, 10 µM [3]: 8 ×10⁻⁶ cm/s
Papp A→B at 2 h [4]: 3.6 ×10⁻⁶ cm/s
permeability [5]: 28%
recovery [6]: 56%

SMILES: CC(C)C[C@@H]1NC(=O)[C@H](CC(C)C)N(C)C(=O)[C@H](CC(C)C)N(C)C(=O)C[C@@H](O)[C@@H](CC(C)C)NC(=O)[C@H]2CCCN2C(=O)[C@H](CC(C)C)N(C)C(=O)C[C@@H]1O
Papp at 5 h, 10 µM [3]: 12 ×10⁻⁶ cm/s
permeability [5]: 41%
recovery [6]: 73%

SMILES: CC(C)C[C@@H]1NC(=O)[C@H]2CCCN2C(=O)[C@H](CC(C)C)N(C)C(=O)C[C@H](O)[C@H](CC(C)C)NC(=O)[C@H](CC(C)C)N(C)C(=O)[C@@H](CC(C)C)N(C)C(=O)C[C@@H]1O
Papp at 5 h, 10 µM [3]: 7 ×10⁻⁶ cm/s
Papp A→B at 2 h [4]: 7.7 ×10⁻⁶ cm/s
permeability [5]: 25%
recovery [6]: 40%
